Source: PubChem BioAssay AID652176 (Sanford-Burnham Center for Chemical Genomics, 2013)
The entries are a selection whose mix differs from that of the whole data set. Some tests of the compounds listed are not included; inactive here does not mean inactive elsewhere. The source made the active and inactive calls.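 Rule for the calls: active = replicate-average signal at least 3 plate SD below neutral wells, shown as high inhibition, flagging enzyme-inhibiting false positives; inactive = the rest.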

Tested on: Beta-galactosidase (Escherichia coli), counter-screen for EBI2 antagonists
Test: E. coli beta-galactosidase enzyme inhibition, confirmation, counter-screen for EBI2 antagonist project, biochemical, luminescence, single concentration (AID 652176);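 note: 0% = DMSO wells with enzyme and 100% = wells lacking enzyme; higher means stronger loss of beta-gal luminescence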
Conditions: purified beta-galactosidase, luminescent Galacton Star, 15 min; at 5 µM; hits give high values

SMILES | inhibition
CCCCC(CC)C(=O)N1CCN(C/C=C/c2ccccc2)CC1 (stereo unspecified) | inactive: -11.1%
